The numbers were not newly measured in article PMC4139653, which cites them from elsewhere.

By UniProt entry, the sequences of proteins in these tests, tags left out. Residues count along the entry.
UniProt P31994, 43-217: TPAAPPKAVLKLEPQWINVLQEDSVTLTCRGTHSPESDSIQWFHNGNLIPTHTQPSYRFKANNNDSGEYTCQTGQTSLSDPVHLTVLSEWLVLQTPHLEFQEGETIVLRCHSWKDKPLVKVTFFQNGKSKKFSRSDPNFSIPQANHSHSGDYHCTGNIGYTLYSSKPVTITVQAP

The target in the series is FcγRIIb (Homo sapiens) (UniProt P31994).

On to Amyloid beta (from UniProt P05067), for which the Kd (usually the concentration at which binding is half-saturated) is 56.7 nM.
